The experiment addresses JNK kinase (Homo sapiens, UniProt P45983). Kind of experiment: Lantha Screen Kinase Activity Assay. It counts as biochemical.

Sequences of proteins named here, by UniProt entry; tags and fusion partners are left off. A change or cut given only in a name is not applied to a line headed by its entry.
UniProt P45983: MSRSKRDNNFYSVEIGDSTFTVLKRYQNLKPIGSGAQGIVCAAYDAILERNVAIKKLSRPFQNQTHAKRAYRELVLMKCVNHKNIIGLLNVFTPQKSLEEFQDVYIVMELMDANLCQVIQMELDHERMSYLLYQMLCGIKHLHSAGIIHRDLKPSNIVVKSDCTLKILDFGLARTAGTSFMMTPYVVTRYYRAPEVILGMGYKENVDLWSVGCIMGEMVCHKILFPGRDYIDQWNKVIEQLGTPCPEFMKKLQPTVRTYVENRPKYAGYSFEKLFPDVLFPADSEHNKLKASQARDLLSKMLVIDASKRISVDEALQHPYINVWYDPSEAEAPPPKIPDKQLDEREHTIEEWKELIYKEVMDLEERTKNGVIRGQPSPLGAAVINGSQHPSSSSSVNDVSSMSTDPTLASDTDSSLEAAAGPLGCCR

In turn, `NC(=O)c1ccsc1NC(=O)Cc1ccc2c(c1)OCCO2` came in with a concentration for half-maximal inhibition (IC50) of 2700 nM.

One may read the IC50 as the concentration at which inhibition is half-maximal.

The record behind these values is US20100240720A1, “ALLOSTERIC JNK INHIBITORS” (Burnham Institute for Medical Research, priority 2009, published 2010).
